Experimental data reported in patent publication US8207155B2, “Sulfonyl-azetidin-3-yl-methylamine amide analogs as GlyTl inhibitors, methods for making same, and use of same in treating psychiatric disorders” (Vanderbilt University, priority 2009, dated 2012).
Like-named read-outs stand apart in the source and are kept apart here.

Molecular target: T1, GlyT1 (Homo sapiens, UniProt P48067)
T1 construct: Human placental choriocarcinoma cells endogenously expressing GlyT1; endogenous in cells; host or cells: JAR human placental choriocarcinoma cells
T1 sequence (P48067 1-706): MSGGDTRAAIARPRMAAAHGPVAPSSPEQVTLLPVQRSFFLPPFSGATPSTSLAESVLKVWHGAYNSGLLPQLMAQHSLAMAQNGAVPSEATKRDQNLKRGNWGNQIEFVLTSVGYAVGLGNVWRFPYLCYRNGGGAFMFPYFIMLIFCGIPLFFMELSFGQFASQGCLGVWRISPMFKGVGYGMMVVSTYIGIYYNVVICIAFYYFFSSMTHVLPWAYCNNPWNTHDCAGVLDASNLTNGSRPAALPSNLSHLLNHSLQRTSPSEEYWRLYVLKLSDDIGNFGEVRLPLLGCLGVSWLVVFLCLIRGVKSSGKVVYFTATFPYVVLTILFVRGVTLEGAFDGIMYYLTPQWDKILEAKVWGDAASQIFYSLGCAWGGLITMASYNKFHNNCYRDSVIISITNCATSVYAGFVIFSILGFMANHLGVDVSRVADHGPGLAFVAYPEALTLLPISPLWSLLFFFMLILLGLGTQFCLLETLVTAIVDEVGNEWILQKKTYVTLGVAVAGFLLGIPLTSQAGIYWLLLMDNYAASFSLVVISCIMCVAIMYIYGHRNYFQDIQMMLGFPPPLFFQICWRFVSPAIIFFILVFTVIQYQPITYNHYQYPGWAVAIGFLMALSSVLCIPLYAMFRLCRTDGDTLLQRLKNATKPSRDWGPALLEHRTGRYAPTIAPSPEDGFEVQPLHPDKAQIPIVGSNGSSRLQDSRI
Test: GlyT1 [14C]-glycine uptake inhibition in human placental choriocarcinoma (JAR) cells
Assay type: cell-based
Conditions: inhibition of specific [14C]-glycine uptake, cells endogenously expressing GlyT1, read-out: Potency (IC50)
Method: Human placental choriocarcinoma cells endogenously expressing GlyT1 can be cultured using standard conditions. Cells can then be grown at 37° C. in a humidified atmosphere 40-48 hours before the assay. Culture medium can be removed from the culture plate, and cells can be incubated with an amount of TB1A buffer with or without the compounds of the present invention for a sufficient period of time. Then an amount of [^14C]-glycine diluted with TB1A can be added to each well. After incubation the microplates can be sealed and counted. Non-specific uptake of [^14C]-glycine can be determined in the presence of unlabeled glycine. To determine potencies, a range of concentrations of the compounds of the present invention can be added to the cells, followed by the fixed concentration of [^14C]-glycine. The concentration of the present compound that inhibited half of the specific uptake of [^14C]glycine (IC50 value) can be determined from the assay data by non-linear curve fitting.

IC50 (values in nM) [nM] | IC50 (values given in μM) [nM] | Compound
68 |  | Cn1cnc(S(=O)(=O)N2CC(C(NC(=O)c3ccc(Cl)cc3Cl)c3ccccn3)C2)c1 (stereo not drawn) [Compound 7]
9 |  | Cn1cnc(S(=O)(=O)N2CC(C(NC(=O)c3ccc(Cl)cc3Cl)c3ccccn3)C2)c1 (single isomer, unassigned) [Compound 7b, 2,4-dichloro-N-((1(1-methyl-1H-imidazol-4-ylsulfonyl)azetidin-3-yl)(pyridine-2-yl)methyl)benzamide]
 | > 10000 | Cn1cnc(S(=O)(=O)N2CC(C(NC(=O)c3ccc(Cl)cc3Cl)c3ccccn3)C2)c1 (single isomer, unassigned) [Compound 7a]
